## AlphaSeq binding of Ab-14 light chain variants to a spike HR2 peptide

Target peptide (SARS-CoV-2 spike, HR2 region): PDVDLGDISGINAS

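The starting antibody came from a phage panning campaign against this peptide. These sequences belong to a second round, designed from the earlier measurements on random variants of the parent. Group labels follow the data file (Ctrl: baseline library sampled from a position-specific scoring matrix, with some repeated check sequences; GP: Gaussian process model; Gen: genetic algorithm; a sequence that several methods proposed may carry one label only). AlphaSeq pools MATa yeast showing the antibodies with MATalpha yeast showing the peptide. After mating in shaken culture at 30 °C for 16 h, diploids were selected and their barcode pairs sequenced. The ratio of observed to expected reads was calibrated, replicate by replicate, on BCL2-family standards whose Kd was known from biolayer interferometry. The assay was run in six technical replicates.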

Parent scFv Ab-14: VH joined to VL by a 15-residue (Gly4Ser)3 linker. Changes lie in the light chain CDRs alone.
VH: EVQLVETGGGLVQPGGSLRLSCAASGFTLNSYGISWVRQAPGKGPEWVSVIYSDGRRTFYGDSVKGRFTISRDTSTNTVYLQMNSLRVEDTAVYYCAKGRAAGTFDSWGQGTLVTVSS
VL: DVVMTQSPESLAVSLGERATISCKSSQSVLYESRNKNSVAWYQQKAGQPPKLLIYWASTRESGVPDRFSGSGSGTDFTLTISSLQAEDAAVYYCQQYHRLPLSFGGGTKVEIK

Each variant's VL is given in full. Values are log10 of the apparent Kd in nM; lower means stronger binding. "nd" marks a missing value. The strain was present, yet no cells mated with the target were sequenced in that replicate, which points to weak or no binding. As a blank, each scFv also met three strains without target: over all light chain designs, 4% of these pairings were detected, typically at 2.64 and seldom below 1.59. Also given: how often the same scFv was detected with the empty control strains, with their mean in brackets. Some sequences occur more than once in the pool; their replicates are listed entry by entry, parted by semicolons. The authors' rule: three or more of the six replicates give a measured affinity, fewer mean a poor binder. A sequence measured in both rounds can read differently, since the two assays cover different ranges. Of ten entries with the parent sequence, four were seen in most replicates (averages 0.34 to 2.37), three in one and three in none, so single entries are noisy.

VL	group	log10 Kd (nM) by replicate	empty controls
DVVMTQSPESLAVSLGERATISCKLIQEVSYESRNKNSVAWYQQKAGQPPKLLIYWASTRESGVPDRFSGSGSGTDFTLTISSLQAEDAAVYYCQQYQRLPLSFGGGTKVEIK	Ctrl	2.35 1.78 nd 2.42 2.27 2.63	1 of 18 (2.13)
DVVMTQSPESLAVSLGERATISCKSSQSVLFESRNKNSVAWYQQKAGQPPKLLIYWASTRESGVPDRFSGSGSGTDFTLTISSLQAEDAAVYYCQYYMRLPLSFGGGTKVEIK	Ctrl	nd nd nd nd nd nd	0 of 18
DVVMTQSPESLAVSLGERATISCKSSQSVLYESRNKNSVAWYQQKAGQPPKLLIYWASTREEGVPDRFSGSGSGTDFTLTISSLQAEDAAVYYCQQYHRLPLSFGGGTKVEIK	Ctrl	nd nd nd nd nd nd	0 of 18
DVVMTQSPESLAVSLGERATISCASSLSVLYESRNKNSVAWYQQKAGQPPKLLIYWASTRESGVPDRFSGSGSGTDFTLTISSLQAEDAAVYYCQQYHRLPNSFGGGTKVEIK	Ctrl	nd nd nd nd nd nd	0 of 18
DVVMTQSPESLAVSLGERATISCKSSQSKLYESRNMNSVAWYQQKAGQPPKLLIYNASTRESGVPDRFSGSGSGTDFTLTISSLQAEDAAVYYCQQYHRLPLSFGGGTKVEIK	Ctrl	0.02 -0.05 -0.51 -0.45 -0.29 0.04	1 of 18 (2.44)
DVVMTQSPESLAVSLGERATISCKSSQEVLYESRNKNSVAWYQQKAGQPPKLLIYEASTRESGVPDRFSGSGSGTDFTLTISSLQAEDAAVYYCQWYTRLPLSFGGGTKVEIK	Ctrl	0.48 0.10 0.44 0.50 0.71 0.64	0 of 18
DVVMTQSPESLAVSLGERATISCVSSQSVLYESRNKNSVAWYQQKAGQPPKLLIYSASTRESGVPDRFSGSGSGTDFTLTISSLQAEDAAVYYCQLYHRAPLSFGGGTKVEIK	Ctrl	nd nd nd nd nd nd	2 of 18 (2.16)
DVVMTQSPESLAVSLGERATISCKSSQSELQESRNKNSVAWYQQKAGQPPKLLIYAASMRESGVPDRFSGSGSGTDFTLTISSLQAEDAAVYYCQQYHRLPLSFGGGTKVEIK	Ctrl	2.70 1.62 1.19 1.57 1.65 1.61	4 of 18 (3.23)
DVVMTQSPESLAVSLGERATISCASSNSLLYESRNKNSVAWYQQKAGQPPKLLIYWASTRQSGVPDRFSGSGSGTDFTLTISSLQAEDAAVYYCQQYHRLPLSFGGGTKVEIK	Ctrl	nd 1.84 1.67 2.30 nd 1.57	0 of 18
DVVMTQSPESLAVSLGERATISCKSSQSVLYESRNKNQVAWYQQKAGQPPKLLIYNASTRESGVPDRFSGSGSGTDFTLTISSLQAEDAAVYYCQQYHRLPLSFGGGTKVEIK	Ctrl	1.04 3.51 2.18 1.99 4.67 2.19	0 of 18
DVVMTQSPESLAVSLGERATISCKSSQSVTYESRNKNSVAWYQQKAGQPPKLLIYWASTRVSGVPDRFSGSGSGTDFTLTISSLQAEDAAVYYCQQYHRLPLCFGGGTKVEIK	Ctrl	3.46 nd 1.58 nd nd nd	0 of 18
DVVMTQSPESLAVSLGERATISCKSSQSVLYESYYKNSVAWYQQKAGQPPKLLIYSASTRESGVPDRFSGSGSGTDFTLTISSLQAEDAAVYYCQQYVRLPLSFGGGTKVEIK	Ctrl	1.84 1.23 nd 1.57 2.34 2.78	1 of 18 (2.13)
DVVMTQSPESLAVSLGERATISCKLMQSVLYESRNKNSVAWYQQKAGQPPKLLIYDASTRESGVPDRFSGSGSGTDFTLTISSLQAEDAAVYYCQQYHRLPLSFGGGTKVEIK	Ctrl+GP_Gen	-0.30 -0.37 -0.40 -0.56 -0.46 -0.22; -0.04 0.11 0.07 -0.17 -0.28 0.05	2 of 36 (3.83)
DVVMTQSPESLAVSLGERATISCKSLQSVLYESRNKNSVAWYQQKAGQPPKLLIYWASTRESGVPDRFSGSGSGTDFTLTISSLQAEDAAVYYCQQYHRLPISFGGGTKVEIK	Ctrl	nd nd 1.07 nd nd nd	1 of 18 (3.22)
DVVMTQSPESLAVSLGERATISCKFSQSVLYTSRNCNSVAWYQQKAGQPPKLLIYAASTRESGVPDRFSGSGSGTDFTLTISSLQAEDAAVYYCQQYHRLPLSFGGGTKVEIK	Ctrl	0.88 0.27 0.42 0.80 0.58 0.71	1 of 18 (2.24)
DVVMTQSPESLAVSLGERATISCKSSQSVLYESRNKNSVAWYQQKAGQPPKLLIYSASTREDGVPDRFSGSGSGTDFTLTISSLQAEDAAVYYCQQYHRLPLSFGGGTKVEIK	Ctrl	0.48 0.11 0.03 0.27 0.44 0.50	1 of 18 (2.14)
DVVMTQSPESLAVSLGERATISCKSSQSVLYESGNKNSVAWYQQKAGQPPKLLIYWASTRESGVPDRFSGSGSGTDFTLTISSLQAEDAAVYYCQQYHREPLSFGGGTKVEIK	Ctrl	nd nd 1.84 nd nd nd	0 of 18
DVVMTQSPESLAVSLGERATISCKSSQSVLYENENKSSVAWYQQKAGQPPKLLIYWASTRESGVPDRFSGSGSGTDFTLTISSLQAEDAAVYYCQQYHRLPLSFGGGTKVEIK	Ctrl	0.41 0.76 0.72 1.22 1.40 1.07	1 of 18 (1.62)
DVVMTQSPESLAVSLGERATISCKISQSVLLESRNVNSVAWYQQKAGQPPKLLIYWHSERESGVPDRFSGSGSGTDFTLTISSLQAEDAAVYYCQQCHRLPLSFGGGTKVEIK	Ctrl	nd nd nd nd nd nd	0 of 18
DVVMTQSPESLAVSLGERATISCKSSQSNLYESRNDNSVAWYQQKAGQPPKLLIYWASTRESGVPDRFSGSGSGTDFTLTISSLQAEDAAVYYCQQYHRLPNSFGGGTKVEIK	Ctrl	nd nd 1.57 nd 0.81 1.57	0 of 18
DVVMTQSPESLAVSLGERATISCKSSQSILYESRNKNSVAWYQQKAGQPPKLLIYDASTRESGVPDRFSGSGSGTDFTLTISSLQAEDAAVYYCQQYHRLPLSFGGGTKVEIK	Ctrl	-0.06 0.10 -0.28 -0.14 -0.01 0.13	3 of 18 (2.40)
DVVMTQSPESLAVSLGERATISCKSDQSVLYESRHKNSVAWYQQKAGQPPKLLIYWASTRELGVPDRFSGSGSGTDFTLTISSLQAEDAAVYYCQQYHRLPLSFGGGTKVEIK	Ctrl	1.16 nd nd nd nd 2.00	0 of 18
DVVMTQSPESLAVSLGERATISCKSSQSVLYESRNKNSVAWYQQKAGQPPKLLIYWASTREWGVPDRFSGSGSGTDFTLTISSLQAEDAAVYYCEQYHRLPLSFGGGTKVEIK	Ctrl	nd nd nd nd nd nd	0 of 18

The opening 2 entries, copied out:

VL	group	log10 Kd (nM) by replicate	empty controls
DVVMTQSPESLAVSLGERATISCKLIQEVSYESRNKNSVAWYQQKAGQPPKLLIYWASTRESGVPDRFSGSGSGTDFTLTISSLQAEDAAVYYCQQYQRLPLSFGGGTKVEIK	Ctrl	2.35 1.78 nd 2.42 2.27 2.63	1 of 18 (2.13)
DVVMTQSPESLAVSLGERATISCKSSQSVLFESRNKNSVAWYQQKAGQPPKLLIYWASTRESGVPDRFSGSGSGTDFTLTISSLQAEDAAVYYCQYYMRLPLSFGGGTKVEIK	Ctrl	nd nd nd nd nd nd	0 of 18

From the AlphaSeq antibody data of Li et al. 2023 (doi:10.1038/s41467-023-39022-2), copy in the FLAb collection.